{"source": "paper PMC5962959", "about": "(ChemMedChem, 2017)", "biological_target": "T1, full-length human TSSK2 (Homo sapiens, UniProt Q96PF2)", "T1 sequence (Q96PF2 1-358)": "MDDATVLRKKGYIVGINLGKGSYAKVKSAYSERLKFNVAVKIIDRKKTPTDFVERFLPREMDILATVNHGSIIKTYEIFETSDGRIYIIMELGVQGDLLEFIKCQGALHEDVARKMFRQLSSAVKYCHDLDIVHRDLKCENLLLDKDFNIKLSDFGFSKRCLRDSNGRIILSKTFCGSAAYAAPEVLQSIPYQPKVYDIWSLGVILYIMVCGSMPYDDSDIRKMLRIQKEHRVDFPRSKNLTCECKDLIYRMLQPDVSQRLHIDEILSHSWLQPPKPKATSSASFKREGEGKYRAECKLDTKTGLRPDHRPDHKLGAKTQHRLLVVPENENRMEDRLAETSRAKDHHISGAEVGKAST", "assay": "Mobility shift assay: TSSK2 phosphorylation of 5-FAM-GS peptide", "type": "biochemical", "conditions": "HTS at 10 μM; cherry-picked compounds from DMSO stocks"}
{"smiles": "CN[C@@H]1C[C@H]2O[C@@](C)([C@@H]1OC)n1c3ccccc3c3c4c(c5c6ccccc6n2c5c31)C(=O)NC4", "note": "[staurosporine]", "values": [{"measurement": "TSSK2 inhibitor confirmed in concentration-response experiments after HTS", "result": "active"}]}
